Laboratory results reported in PubChem BioAssay AID588497 (NMMLSC, 2011).
About 780 (0.22%) of roughly 360,000 compounds were called active. Only results without a clear call are listed here; the source files them as inconclusive. Cut-off read from the data, not from the text of the source: active = inhibition above about 35% (passing the limit was not always enough); inconclusive = no clear call, values can overlap the other calls.

system: Botulinum neurotoxin type F light chain protease (Clostridium botulinum); test: BoNT/F light chain protease inhibitors, primary screen, biochemical, flow cytometry, MLPCN library (AID 588497); conditions: Multiplex microsphere protease cleavage assay, at 10 µM, active compounds read high; note: plate controls were buffer without enzyme for full effect and enzyme alone for no effect

Which inhibition does the source give for `Nc1cc(N)c2nonc2c1[N+](=O)[O-]` here?
The inhibition was inconclusive: 47.3%.

With `Cc1ccc(OP(=O)(Nc2nccs2)Oc2ccc(C)cc2)cc1` as the compound, how does the inhibition read?
Its inhibition is inconclusive: -20.4%.

For `O=C(O)CNc1ccc([As](=O)(O)O)cc1`, which inhibition is on record?
Its inhibition is inconclusive: -10.8%.

Which inhibition does the source give for `O=[N+]([O-])c1cccc(NC2=NCC(CBr)S2)c1` (stereo unspecified) here?
The inhibition was inconclusive: -11.9%.

How did the inhibition turn out when `O=C(Nc1cc([As](=O)(O)O)ccc1O)c1ccccc1` was run?
The inhibition was inconclusive: -7.1%.

With `CN(C)C(=O)Oc1noc2ccccc12` as the compound, how does the inhibition read?
The inhibition was inconclusive: 18.6%.

Which inhibition does the source give for `COc1ccccc1CNC(=O)COC(=O)C(O)(c1ccccc1)c1ccccc1` here?
Its inhibition is inconclusive: -13.9%.

Which inhibition does the source give for `O=C(OC1CN2CCC1CC2)c1cccc([N+](=O)[O-])c1` (stereo unspecified) here?
Its inhibition is inconclusive: 13.1%.

Which inhibition does the source give for `CCOC(=O)c1ccc(NC(=O)C(C)(CCl)SC)cc1` (stereo unspecified) here?
Its inhibition is inconclusive: -4.1%.

How did the inhibition turn out when `O=C(Nc1ccncc1[N+](=O)[O-])c1ccc([N+](=O)[O-])cc1[N+](=O)[O-]` was run?
Its inhibition is inconclusive: 7.7%.

For `O=[N+]([O-])c1ccc(Nc2ccc(Oc3ccc([N+](=O)[O-])cc3[N+](=O)[O-])cc2)c([N+](=O)[O-])c1`, which inhibition is on record?
The inhibition was inconclusive: -7.2%.
